Ab-14 heavy chain CDR variants: yeast mating affinities

Target peptide (SARS-CoV-2 spike, HR2 region): PDVDLGDISGINAS

Parent: Ab-14, a human scFv built as VH, three GGGGS repeats, VL. Only the CDRs of the heavy chain vary.
VH: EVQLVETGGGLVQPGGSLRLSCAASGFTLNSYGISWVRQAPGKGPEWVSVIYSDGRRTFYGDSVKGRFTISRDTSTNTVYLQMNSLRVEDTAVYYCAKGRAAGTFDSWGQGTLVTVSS
VL: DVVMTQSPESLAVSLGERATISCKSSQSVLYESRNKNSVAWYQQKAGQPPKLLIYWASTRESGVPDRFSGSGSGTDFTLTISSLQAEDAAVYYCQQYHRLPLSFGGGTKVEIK

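The variants were designed computationally from a first round of random CDR variants and then made and measured. Group labels follow the data file (Ctrl: baseline library sampled from a position-specific scoring matrix, with some repeated check sequences; Rand: our label for a block that the file lists under HC and that is probably the random mutants of the ten best first-round binders; En: ensemble of fine-tuned language models; GP: Gaussian process model; GPLM: also part of the Gaussian process libraries; HC: hill climbing; Gen: genetic algorithm; Gibbs: Gibbs sampling; a sequence that several methods proposed may carry one label only). Affinity was read by AlphaSeq, a pooled yeast mating assay with surface-displayed partners. Binding brings cells together so that they mate, and sequencing counts the barcode pairs among the diploids. Each replicate has its own calibration line, from reference interactions of the BCL2 family. There are six technical replicates.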

Variants are written as CDR1, CDR2 and CDR3 of the heavy chain (limits as in the source). Parent: GFTLNSYGIS, VIYSDGRRTFYGDSVK, GRAAGTFDS. This list holds designs with at most six substitutions. Scale: log10 of Kd in nM, estimated from mating counts; low values are strong binders. Replicates are averaged; those with no signal do not enter the mean. A pair that was not seen in any replicate is written "no signal"; this usually means weak binding, but a binder can also be missed. A sequence measured in both rounds can read differently, since the two assays cover different ranges.

- GFTLNEYGIS | VIYSDGRRTEYGDSVK | GRAAGTFIS [GP_HC] = no signal (0 of 6 replicates)
- GFSLNSYGIS | VIYSDGRRTFYADSVK | GHAAGTFDK [GPLM_Gen] = 0.55 (6 of 6 replicates)
- GFTLNSYGIS | VIYSDGERKFYGDSVK | GRSAGTFDS [Ctrl] = 0.50 (6 of 6 replicates)
- GFTLDSYGIS | VIYSDGRRTFYHDSVK | GAAPGTFDS [Ctrl] = 1.47 (4 of 6 replicates)
- GFQLNEYGIS | VIYSDGRRTFYGDSVK | GREAGTFDT [GPLM_Gen] = -0.41 (6 of 6 replicates)
- GFTLNEHGIS | VIYSDGRRTFYGDSVK | GRAAGYFDM [Ctrl] = 1.37 (6 of 6 replicates)
- GFTINMYGIS | VIYSDGRRTFYGDSVK | GRGAGYFSS [Ctrl] = no signal (0 of 6 replicates)
- GFTLNEYGIS | VIYSDGRRTFYGDSVK | GRDAGYFDS [Ctrl] = 0.85 (6 of 6 replicates)
- GFTLNSYGIS | VIYSDLRRTFYGDSVK | GRLAGTFDS [Ctrl] = no signal (0 of 6 replicates)
- GFTLNSYGIS | VIYSDGRRTFYGDSVK | GRFAGLFDL [Ctrl] = no signal (0 of 6 replicates)
- GFTLNQYGIS | VIYEDGRRTFYSDSVK | GRAAGFKDS [Rand] = no signal (0 of 6 replicates)
- GFTLNSYGIS | VIYSDGRRTFYADSVK | QRAAGTFDS [Ctrl] = no signal (0 of 6 replicates)
- GFTLDSYGIS | VIYSDGRRTFYGDSVK | GNAAGTIDS [Ctrl] = no signal (0 of 6 replicates)
- GFWLNDYGIS | VIYSDGRRTFYIDSVK | GRLAGTFDS [GP_HC] = 0.66 (6 of 6 replicates)
- GFTLNSYGIS | VIYMDGRRTFYGDSVK | TQAAGTFDY [Ctrl] = no signal (0 of 6 replicates)
- GFSLNSYGIS | VIYSDGRRTFYGDSVK | GRVAGTFDI [GPLM_Gen] = 0.89 (5 of 6 replicates)
- GFSLNEYGIS | VIYADGRRTFYGDSVK | GRAAGTFKS [GP_HC] = 0.32 (6 of 6 replicates)
- GFTINSYGIS | VIYSDGWRTFYGDSVK | GRCAGTFDS [Ctrl] = no signal (0 of 6 replicates)
- GFTLESYGIS | VIYSDGRRTFYGDSVE | GDASGTFDS [Ctrl] = no signal (0 of 6 replicates)
- GFDLNTYGIS | VIYSDGRRTFYGDSVK | GKTAGTFDS [GP_Gen] = 0.83 (6 of 6 replicates)
- GFTLNDYGIS | VIYSDGRRTFYGDSVK | GRKAGTKDS [Ctrl] = no signal (0 of 6 replicates)
- GFQLNDYGIS | VIYSDGRRTFYGDSVK | GRTAGTFDT [GPLM_Gen] = 1.03 (6 of 6 replicates)
- GFTRNQYGIS | VIYSDGRRTFYSDSVK | GRAAGFFVS [Rand] = no signal (0 of 6 replicates)
- GFNLNEYGIS | VIYADGRRTFYSDSVK | GEAAGTFDA [En_HC] = -0.13 (6 of 6 replicates)
- GFTLNDYGIS | VIYSDGRRTFYKDSVK | GRAAGTFES [GP_HC] = 1.82 (4 of 6 replicates)
- GFTLNEYGIS | VIYSDGRRTMYTQSVK | GRFAGTFDS [Rand] = 1.06 (6 of 6 replicates)
- GFSLNSYGIS | VIYSDGRRTFYGDSVK | GKTAGTFDA [GPLM_Gen] = 0.31 (6 of 6 replicates)
- GFGLNEYGIS | VIYSDGRRTFYGDSVK | GRAAGTFDQ [GP_HC] = 0.67 (6 of 6 replicates)
- GFTLNSYGIS | VIYSDGRRTFYTDAVK | GSTAGTPDS [Ctrl] = no signal (0 of 6 replicates)
- GFTLDSYGIS | VIYADGRRTFYGDSVK | GRAAGTFAS [GP_HC] = 1.06 (1 of 6 replicates)
- GFSLNEYGIS | VIYSDGRRTFYTDSVK | GFAAGTFDL [GP_HC] = 0.15 (5 of 6 replicates)
- GFSLNSYGIS | VIYSDGRRTVYGDSVK | GRTAGTFDS [GPLM_Gen] = 0.17 (6 of 6 replicates)
- GFTINSYGIS | VIYSDGRRTFYADSVK | GRAAGPFDS [Ctrl] = no signal (0 of 6 replicates)
- GFTLNSYGIS | VIYADGVRTFYGDSYK | GSAAITFDS [Ctrl] = no signal (0 of 6 replicates)
- GFGLNSYGIS | VIYSDGRRTFYGDSVK | GKIAGTFDS [GP_Gen] = 0.75 (4 of 6 replicates)
- GFTLNDYGIS | VIYSDGRRTFYSDSVK | GRAAGKFDS [GPLM_HC] = no signal (0 of 6 replicates)
- GFTLKSYGIS | VIYADGRRTFYGDSVK | GRTAGTFDS [GPLM_Gen] = 0.77 (6 of 6 replicates)
- GFTLNSYGIS | VIYSDGRRTFYGDDVK | GYAAGTFDS [Ctrl] = no signal (0 of 6 replicates)
- GFTLNSYGIS | VIYSDGQRQFYLDSVR | GRAAGTFDS [Ctrl] = no signal (0 of 6 replicates)
- GFTLNTYGIS | VIYSDGHRTFYKDSVK | RHAAGTFDS [Ctrl] = no signal (0 of 6 replicates)
- GFQLNTYGIS | VIYSDGRRTFYSDSVK | GEAAGTFDS [GP_Gibbs] = 0.49 (6 of 6 replicates)
- GFELNSYGIS | VIYSDGRRTAYSDSVK | GRAAGTFDS [GPLM_Gibbs] = 0.32 (6 of 6 replicates)
- GFTLNSYGIS | VIYSDGRRTFYADQVK | IRAAGTFHS [Ctrl] = 1.15 (6 of 6 replicates)
- GFELNSYGIS | VIYSDGRRTFYTDDVK | GNAAGTFDS [GP_Gibbs] = 0.63 (6 of 6 replicates)
- GFTLNEYGIS | VIYSDGRRTFYGDSVK | GRYAGSFDS [Ctrl] = no signal (0 of 6 replicates)
- GFQLNSYGIS | VIYSDGRRTFYGDSVK | GRAAGWFDS [Rand] = no signal (0 of 6 replicates)
- GFDLNSYGIS | VIYSDGRRTFYGDSVK | GQTAGTFDL [GPLM_Gibbs] = 0.18 (6 of 6 replicates)

Excerpt, the first 7 entries:

{"CDR-H1": "GFTLNEYGIS", "CDR-H2": "VIYSDGRRTEYGDSVK", "CDR-H3": "GRAAGTFIS", "group": "GP_HC", "log10 Kd (nM), mean": "no signal", "seen in": "0/6"}
{"CDR-H1": "GFSLNSYGIS", "CDR-H2": "VIYSDGRRTFYADSVK", "CDR-H3": "GHAAGTFDK", "group": "GPLM_Gen", "log10 Kd (nM), mean": "0.55", "seen in": "6/6"}
{"CDR-H1": "GFTLNSYGIS", "CDR-H2": "VIYSDGERKFYGDSVK", "CDR-H3": "GRSAGTFDS", "group": "Ctrl", "log10 Kd (nM), mean": "0.50", "seen in": "6/6"}
{"CDR-H1": "GFTLDSYGIS", "CDR-H2": "VIYSDGRRTFYHDSVK", "CDR-H3": "GAAPGTFDS", "group": "Ctrl", "log10 Kd (nM), mean": "1.47", "seen in": "4/6"}
{"CDR-H1": "GFQLNEYGIS", "CDR-H2": "VIYSDGRRTFYGDSVK", "CDR-H3": "GREAGTFDT", "group": "GPLM_Gen", "log10 Kd (nM), mean": "-0.41", "seen in": "6/6"}
{"CDR-H1": "GFTLNEHGIS", "CDR-H2": "VIYSDGRRTFYGDSVK", "CDR-H3": "GRAAGYFDM", "group": "Ctrl", "log10 Kd (nM), mean": "1.37", "seen in": "6/6"}
{"CDR-H1": "GFTINMYGIS", "CDR-H2": "VIYSDGRRTFYGDSVK", "CDR-H3": "GRGAGYFSS", "group": "Ctrl", "log10 Kd (nM), mean": "no signal", "seen in": "0/6"}

The authors averaged sequences with at least three values out of six and counted those with two or fewer as poor binders. The parent sequence was in this pool as ten entries: three were never detected, three once, and four in most replicates, with averages from 0.34 to 2.37. Background: pairings of all heavy chain designs with three empty control strains gave a value in 1% of cases (median 2.08, 5th percentile 0.84). Values in that range, when seen in few replicates, are hard to tell from nonspecific mating.

Values reported by Li et al. 2023, doi:10.1038/s41467-023-39022-2 (FLAb copy).